The list shows a part of the results, in another mix than the full data. The source made the active and inactive calls. The call rests on the fitted dose curve; in most records, active means well fitted activation curve with a large enough effect; inconclusive means small, poorly fitted or top-dose-only effect; inactive means no such curve, though single readings can be large or run the other way.
On the % scale 0 is the no-effect control and ±100 the full control effect.

The chains behind the UniProt entries cited, without tags or fusion partners.
UniProt P14618, whole entry, looked up: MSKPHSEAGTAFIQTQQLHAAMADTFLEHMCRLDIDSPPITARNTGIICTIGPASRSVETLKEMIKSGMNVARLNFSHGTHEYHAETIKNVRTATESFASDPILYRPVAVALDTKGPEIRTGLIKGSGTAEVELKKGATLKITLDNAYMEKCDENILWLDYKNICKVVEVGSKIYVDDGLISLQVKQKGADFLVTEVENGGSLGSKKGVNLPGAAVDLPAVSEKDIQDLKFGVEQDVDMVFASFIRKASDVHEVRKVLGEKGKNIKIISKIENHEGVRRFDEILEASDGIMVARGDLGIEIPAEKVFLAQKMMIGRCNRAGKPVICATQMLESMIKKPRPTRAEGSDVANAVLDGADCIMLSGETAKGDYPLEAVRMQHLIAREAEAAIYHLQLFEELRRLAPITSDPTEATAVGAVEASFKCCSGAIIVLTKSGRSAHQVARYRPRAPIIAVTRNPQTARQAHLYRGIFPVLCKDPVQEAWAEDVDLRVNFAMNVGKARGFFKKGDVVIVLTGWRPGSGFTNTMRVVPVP

The target of this assay is Pyruvate kinase PKM (Homo sapiens) (UniProt P14618). The assay is described as follows: qHTS Assay for Activators of Human Muscle isoform 2 Pyruvate Kinase. Further: nearly all actives have a fitted effect of over 55% in size. As to conditions: purified PKM2, Kinase-Glo ATP luminescence, 0% is enzyme alone, no compound; at 57.5 µM (top of the series). The method in brief: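 Purified hPK-M2 (>95% pure) converted ADP (0.1 mM final) to ATP with 0.5 mM PEP in 50 mM imidazole pH7.2, KCl, MgCl2, Tween 20, BSA; 1 h at room temperature. ATP detected by Kinase-Glo luminescence.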
As for `C[N+]1=C2C=CC=CC=C2SC12C([N+](=O)[O-])=CC([N+](=O)[O-])=C[C-]2[N+](=O)[O-]` (stereo not given), the activation was inactive: -2.65%.
On to `O=C(COc1ccccc1)OC1CN2CCC1CC2` (stereo not given), for which the activation is inactive: -1.03%.
Turning to `COP1(=S)c2c(C)nn(CCC#N)c2N=C(c2ccc(F)cc2)N1C` (stereo not given), the activation is inactive: -13.3%.
As for `CCC(C)N(CC(C)C)C(=S)SC(NC(C)=O)C(Cl)(Cl)Cl` (stereo not given), the activation is inactive: -17.2%.
On to `CCOC(=O)c1ccc(NC(=O)C(C)(CCl)SC)cc1` (stereo not given), for which the activation was inactive: 0.0419%.
The value for `CCCCOc1ccc(C(=O)NCC2(N3CCCCC3)CCCCC2)cc1OC` was inactive: -0.258%.
The value for `Cc1cc(SC(NC(=O)c2ccccc2)C(Cl)(Cl)Cl)nc(C(C)C)n1` (stereo not given) was inactive: 2.72%; that for `CCOC(=O)Nc1ccc([As](=O)(O)O)c(O)c1` was inactive: -2.99%.
For `O=P(Nc1ccccn1)(c1cccc2ccccc12)c1cccc2ccccc12`, the activation is inactive: -0.0234%.
For `Cc1cc(SC(NC=O)C(Cl)(Cl)Cl)ncn1` (stereo not given), the activation is inactive: -28.5%.
On to `O=[N+]([O-])c1ccc(Nc2ccc(Oc3ccc([N+](=O)[O-])cc3[N+](=O)[O-])cc2)c([N+](=O)[O-])c1`, for which the activation is inactive: -0.862%.
For `CCOC(=O)Nc1cccc([As](=O)(O)O)c1`, the activation was inactive: 0.254%.
As for `Cc1ccc(OP(=O)(Nc2ccc([N+](=O)[O-])cn2)Oc2ccc(C)cc2)cc1`, the figure is inactive: -0.504%.
Turning to `Cc1ccc2nc3c(c(C)c2c1)CC(C(Cl)Cl)S3` (stereo not given), the activation is inactive: -17.5%.
Consider `C[As](=O)(O)c1cccc(C(=O)O)c1`, for which the activation was inactive: -1.94%.
Turning to `O=[As](O)(c1ccc(O)cc1)c1ccccc1O`, the activation is inactive: 1.86%.
Turning to `CCN(CC)C(=S)SC(NC=O)C(Cl)(Cl)Cl` (stereo not given), the activation was inactive: -5.96%.
For `CC(C)NC(=O)NP(=O)(Oc1ccccc1)Oc1ccccc1`, the activation was inactive: 2.45%.
With `O=[N+]([O-])c1cc([N+](=O)[O-])c(-c2ccn[nH]2)s1`, the activation is inactive: 2.7%.
The value for `ClCCSc1nnc(-c2cccnc2)o1` was inactive: 1.66%; that for `CC(C)c1ccc(OP(=O)(Nc2ccccn2)Oc2ccccc2F)cc1` (stereo not given) was inactive: 0.666%.
On to `COc1ccc2nc(NP(=O)(c3ccccc3)c3ccccc3)sc2c1`, for which the activation was inactive: -0.804%.
As for `COc1cc(I)ccc1[As](=O)(O)O`, the activation is inactive: 0.477%.
For the molecule `Cc1c2c(nc3ccccc13)SC(C(Cl)Cl)C2` (stereo not given), the activation was inactive: -2.1%.
As for `O=C(OC1CN2CCC1CC2)C12CC3CC(CC(C3)C1)C2` (stereo not given), the activation was inactive: 5.24%.
`Cc1cc(=O)[nH]c(N[N+](=O)[O-])n1`: the activation was inactive: -27%.
The value for `COc1ccc(N/C(=N/P(=O)(N2CCOCC2)N2CCOCC2)N2CCOCC2)cc1` was inactive: 1.77%.
As for `O=[As](O)(c1cccc(O)c1)c1cccc(O)c1`, the figure is inactive: -2.62%; as for `Cc1cccc(OCC(=O)OC2CN3CCC2CC3)c1` (stereo not given), inactive: -6.44%.
Turning to `O=C(OC1CN2CCC1CC2)c1ccc(Cl)cc1` (stereo not given), the activation was inactive: -2.38%.
For `COc1cc(C(=O)NCC2(N3CCOCC3)CCCCC2)cc(Cl)c1OC(C)C`, the activation is inactive: -0.83%.
As for `O=[As](O)(O)c1cccnc1`, the figure is inactive: -1.42%.
Turning to `CS(=O)(=O)c1ccc(Cl)c(NC(=O)COC(=O)C(O)(c2ccccc2)c2ccccc2)c1`, the activation is inactive: -8.19%.
As to `COc1cc(C2NCCC3(OCCO3)C2(C)C)cc(OC)c1OC` (stereo not given), the activation was inactive: 2.77%.
As for `CCOP(=O)(Nc1cccc2ccccc12)OCC`, the figure is inactive: -0.0739%; as for `Nc1cccc2c([As](=O)(O)O)cccc12`, inactive: -0.525%.
In the case of `Cc1ccc(NCCc2c([N+](=O)[O-])cc([N+](=O)[O-])cc2[N+](=O)[O-])cc1`, the activation was inactive: -1.01%.
Turning to `CCCOP(=S)(Nc1nc(N)cc(=O)[nH]1)OCCC`, the activation was inactive: -9.04%.
On to `Nc1ccccc1[As](=O)(O)c1ccccc1`, for which the activation was inactive: 0.261%.
As for `O=C(O)COc1ccc([As](=O)(O)O)cc1[N+](=O)[O-]`, the figure is inactive: 13.5%.
In the case of `CCOP1(=S)c2c(C)nn(CCC#N)c2N=C(c2ccccc2F)N1C` (stereo not given), the activation is inactive: 0.0695%.
In the case of `O=P(Nc1nccs1)(c1ccccc1)c1nc2ccccc2s1` (stereo not given), the activation was inactive: -68.1%.
Consider `O=P(Nc1nccs1)(Oc1ccccc1)Oc1ccccc1`, for which the activation was inactive: -11.7%.
`CS(=O)(=O)c1cc([N+](=O)[O-])c2no[n+]([O-])c2c1`: the activation is inactive: -67.5%.
As for `CCOP1(=S)c2c(C)nn(CCC#N)c2N=C(c2ccc(F)cc2)N1C` (stereo not given), the figure is inactive: 0.518%.
For the molecule `CN(C(=O)Cc1ccccc1)[C@@H]1CC[C@]2(CCCO2)C[C@H]1N1CCCC1`, the activation was inactive: -8.26%.
In the case of `O=[N+]([O-])c1ccc2c(c1)nnn2O`, the activation is inactive: -0.288%.
Turning to `NC(=O)Nc1ccc([As](=O)(O)O)cc1`, the activation is inactive: -0.974%.
Regarding `CN(C)C1(CNC(=O)c2ccc(S(C)(=O)=O)cc2)CCCCC1`, the activation was inactive: -2.16%.
In the case of `O=C(/C=C/c1ccccc1)OC1CN2CCC1CC2` (stereo not given), the activation is inactive: -0.203%.
Regarding `Cc1nn(-c2ccccc2)c2c1P(=O)(N1CCOCC1)N(C)C(c1ccccc1)=N2` (stereo not given), the activation is inactive: -1.36%.
The value for `CC1CCC(C(C)C)C(OP(=O)(Nc2ccccn2)c2ccccc2)C1` (stereo not given) was inactive: 0.574%; that for `Nc1cccc([As](=O)(O)c2ccccc2)c1` was inactive: 3.72%.
For `O=P1(Nc2ccc(Br)cn2)COc2ccccc2OC1`, the activation is inactive: 4.08%.
Regarding `O=[As](O)(c1cccs1)c1cccs1`, the activation was inactive: -4.75%.
The value for `Cc1ccc(OCC(=O)OC2CN3CCC2CC3)cc1` (stereo not given) was inactive: -1.06%; that for `O=P1(Nc2ncccn2)COc2ccccc2OC1` was inactive: -15.9%; that for `Clc1n[nH]nc1-c1nn[nH][15n]1` was inactive: -20.4%.
The value for `CC(C)(C)C(=O)NC(Sc1ncccn1)C(Cl)(Cl)Cl` (stereo not given) was inactive: 3.31%; that for `O=P1(Nc2ccccn2)COc2ccccc2OC1` was inactive: 0.0678%.
As for `CCC1=CC2Cc3nc4ccc(Cl)cc4c(N)c3C(C1)C2` (stereo not given), the figure is inactive: 16.6%; as for `CCOP(=O)(Nc1ccc(C)cn1)OCC`, inactive: -1.05%.
Turning to `CC(C)/C=N\N=C(\N)N[N+](=O)[O-]`, the activation is inactive: -0.212%.
With `CN(C(=O)Cc1ccc(Cl)c(Cl)c1)[C@@H]1CCCC[C@H]1N1CCCC1`, the activation was inactive: 2.93%.
For `O=[As](O)(c1ccccc1Br)c1ccccc1Br`, the activation was inactive: -5.6%.

For the origin of these results see PubChem BioAssay AID1631 (National Center for Advancing Translational Sciences (NCATS), 2009).
